HCMV UL50-53 inh = inhibitors of HCMV UL50-UL53 interaction, biochemical, HTRF. HCMV UL50-UL53 nuclear egress complex (human cytomegalovirus). normalized percent inhibition. inhibition, % (concentration not given with the values). actives 0.15% (n = 190,000). AID 1918969, 2023; in the data active means inhibition above about 27%, passing the limit was not always enough
GIV-Gai inh = inhibitors of GIV peptide binding to Galpha-i3, primary screen, biochemical, fluorescence polarization, FITC-GIV GBA peptide, rat Galphai3 | 90 min; hits give low values; scaled: aluminum fluoride 0%, vehicle 100% | percent of control (FP), % (concentration not given with the values) | 210,000 compounds, 0.42% hits | AID 1224905, 2016;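 active = replicate mean at 85% of control or lower, very high polarization wells dropped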;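 also: wells of about 15 µL received 100 nL stock; the first replicate is given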
Active calls of the source: *. Shown are actives, neighbours in structure and some others; about 0.43% of the full set was active somewhere.

What do the screens show for `Fc1ccc(-c2noc(Cc3nc(-c4ccc(Br)cc4)cs3)n2)cc1`?
GIV-Gai inh: 142

How did COc1ccc(C2C=C(c3ccc(C)cc3)Nc3c(C(=O)Nc4ccccc4)cnn32)cc1 (configuration not stated) do in these assays?
GIV-Gai inh: -67*

What do the screens show for `COc1ccc(C2=CC(c3cccc(OC)c3)n3ncc(C(=O)Nc4ccc(C)cc4)c3N2)cc1` (configuration not stated)?
HCMV UL50-53 inh: 2; GIV-Gai inh: 108

What do the screens show for `O=C(O)CSCc1nc2ccccc2[nH]1`?
HCMV UL50-53 inh: -4

Results for COC(=O)CSc1nc2ccccc2[nH]1 ?
HCMV UL50-53 inh: -43; GIV-Gai inh: 100

Results for O=C(O)CSCc1nc2ccccc2[nH]c1=O ?
HCMV UL50-53 inh: 52*; GIV-Gai inh: 145

How did COC(=O)CSCc1nc2ccccc2[nH]c1=O do in these assays?
HCMV UL50-53 inh: 57*; GIV-Gai inh: 212

How did CC1=CC(O)(c2ccccc2)C(N2CCOCC2)N1O (configuration not stated) do in these assays?
HCMV UL50-53 inh: 2; GIV-Gai inh: 103

What do the screens show for `Cn1cnc2cc(-c3noc(-c4ccc5c(c4)OCO5)n3)ccc21`?
GIV-Gai inh: 96

How did CCCCC(=O)N(C)CCc1noc(COc2ccccc2)n1 do in these assays?
HCMV UL50-53 inh: -16; GIV-Gai inh: 103

What do the screens show for `CC(CC1C(C#N)=C(N)SC(N)=C1C#N)c1ccccc1` (configuration not stated)?
HCMV UL50-53 inh: -8; GIV-Gai inh: -74*

How did CC(c1ccccc1)C1C(C#N)=C(N)SC(N)=C1C#N (configuration not stated) do in these assays?
HCMV UL50-53 inh: -18; GIV-Gai inh: 108

Some of these compounds in order of heavy-atom count, descending.
What do the screens show for `Fc1ccc(-c2noc(Cc3nc(-c4ccc(Br)cc4)cs3)n2)cc1`?
GIV-Gai inh: 142

How did CCCCC(=O)N(C)CCc1noc(COc2ccccc2)n1 do in these assays?
HCMV UL50-53 inh: -16; GIV-Gai inh: 103

Results for COC(=O)CSc1nc2ccccc2[nH]1 ?
HCMV UL50-53 inh: -43; GIV-Gai inh: 100

Additional results.
How did Cc1noc2nc(CCC(=O)NC(C)C)nc(N3CCCCC3)c12 do in these assays?
GIV-Gai inh: 99

What do the screens show for `Cc1cccc(CSc2nc3cccnc3n2Cc2ccccc2F)c1`?
HCMV UL50-53 inh: -22; GIV-Gai inh: 101

What do the screens show for `Cc1ccc(Cn2c(SCc3cccc(C)c3)nc3cccnc32)cc1`?
HCMV UL50-53 inh: 22*; GIV-Gai inh: 106

Results for Clc1ccc(C2=CC(c3ccc(Br)cc3)n3ncnc3N2)s1 (configuration not stated) ?
GIV-Gai inh: -22*

Results for Cc1ccsc1C1C=C(c2ccc(Br)cc2)Nc2ncnn21 (configuration not stated) ?
GIV-Gai inh: 97

What do the screens show for `C=CCN1C(=O)/C(=C\C=C2/CCCN2C)SC1=S`?
HCMV UL50-53 inh: -78; GIV-Gai inh: -61*

What do the screens show for `CN1C(=O)/C(=C/C=C2/CCCN2C)N(C)C1=S`?
HCMV UL50-53 inh: -188; GIV-Gai inh: 183

How did C=CCN1C(=O)/C(=c2\sc3n(c2=O)C(c2ccc(OC)cc2)C(C(=O)OC)=C(C)N=3)c2ccccc21 (configuration not stated) do in these assays?
HCMV UL50-53 inh: -18; GIV-Gai inh: 110

How did CCc1nc2nc(C)c(CC(=O)Nc3ccc(Br)cc3)c(C)n2n1 do in these assays?
HCMV UL50-53 inh: -10; GIV-Gai inh: 99

What do the screens show for `CCOC(=O)c1cnc(SC(C)C(=O)Nc2c(C)cc(C)cc2C)nc1N` (configuration not stated)?
HCMV UL50-53 inh: -6; GIV-Gai inh: 106

What do the screens show for `N#CCc1c(C#N)c(N)nc(N2CCN(S(=O)(=O)c3ccccc3)CC2)c1C#N`?
HCMV UL50-53 inh: 22

How did N#CCc1c(C#N)c(N)nc(N2CCc3ccccc32)c1C#N do in these assays?
HCMV UL50-53 inh: 35*

How did CC(C)c1ccc(Nc2nn3c(=O)c4ccccc4nc3s2)cc1 do in these assays?
HCMV UL50-53 inh: 38*; GIV-Gai inh: 98

What do the screens show for `COc1ccc(Nc2nn3c(=O)c4ccccc4nc3s2)cc1`?
HCMV UL50-53 inh: -9

How did O=C(COC(=O)c1n[nH]c2ccccc12)NC1CC1 do in these assays?
HCMV UL50-53 inh: -8

What do the screens show for `O=C(CC(NCCC1=CCCCC1)C(=O)O)Nc1ccccc1Cl` (configuration not stated)?
HCMV UL50-53 inh: -38; GIV-Gai inh: 99

Results for Cc1cc2nc3c(=O)[nH]c(=O)nc-3n(C(O)C(O)C(O)C(O)CO)c2cc1C (configuration not stated) ?
HCMV UL50-53 inh: -132; GIV-Gai inh: -74*

What do the screens show for `Cc1cc2nc3c(=O)[nH]c(=O)nc-3n(C[C@@H](O)[C@@H](O)[C@@H](O)COP(=O)(O)O)c2cc1C`?
HCMV UL50-53 inh: -166

What do the screens show for `O=C(CSc1ccc2c3c(cccc13)C(=O)c1ccccc1-2)Nc1ccccc1`?
GIV-Gai inh: 99

Results for COCCCNC(=O)CSc1ccc2c3c(cccc13)C(=O)c1ccccc1-2 ?
GIV-Gai inh: -73*
